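96-well plates; 48 h exposure; 5 concentrations. Endpoints by linear interpolation between flanking doses. Not reached: highest tested concentration assigned. GI50: concentration for 50% inhibition of growth. TGI: total growth inhibition.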
Assays:
Assay in all cases: growth of human tumour cells (NCI), 48 h; in the data active = GI50 below about 0.43 µM; inactive = the rest
786-0 renal = test system: 786-0 renal
A498 renal = test system: A498 renal
A549 NSCLC = test system: A549 NSCLC
ACHN renal = test system: ACHN renal
BT-549 breast = test system: BT-549 breast
CAKI-1 renal = test system: CAKI-1 renal
CCRF-CEM leukemia = test system: CCRF-CEM leukemia
COLO 205 colon = test system: COLO 205 colon
DU-145 prostate = test system: DU-145 prostate
EKVX NSCLC = test system: EKVX NSCLC
HCC-2998 colon = test system: HCC-2998 colon
HCT-116 colon = test system: HCT-116 colon
HCT-15 colon = test system: HCT-15 colon
HL-60(TB) leukemia = test system: HL-60(TB) leukemia
HOP-62 NSCLC = test system: HOP-62 NSCLC
HOP-92 NSCLC = test system: HOP-92 NSCLC
HS 578T breast = test system: HS 578T breast
HT29 colon = test system: HT29 colon
IGROV1 ovarian = test system: IGROV1 ovarian
K-562 leukemia = test system: K-562 leukemia
KM12 colon = test system: KM12 colon
LOX IMVI melanoma = test system: LOX IMVI melanoma
M14 melanoma = test system: M14 melanoma
MALME-3M melanoma = test system: MALME-3M melanoma
MCF7 breast = test system: MCF7 breast
MDA-MB-231 breast = test system: MDA-MB-231 breast
MDA-MB-435 = test system: MDA-MB-435
MDA-N = test system: MDA-N
MOLT-4 leukemia = test system: MOLT-4 leukemia
NCI-H226 lung = test system: NCI-H226 lung
NCI-H23 lung = test system: NCI-H23 lung
NCI-H322M lung = test system: NCI-H322M lung
NCI-H460 lung = test system: NCI-H460 lung
NCI-H522 lung = test system: NCI-H522 lung
NCI/ADR-RES ovarian = test system: NCI/ADR-RES ovarian
OVCAR-4 ovarian = test system: OVCAR-4 ovarian
OVCAR-5 ovarian = test system: OVCAR-5 ovarian
OVCAR-8 ovarian = test system: OVCAR-8 ovarian
PC-3 prostate = test system: PC-3 prostate
RPMI-8226 leukemia = test system: RPMI-8226 leukemia
RXF 393 renal = test system: RXF 393 renal
SF-268 CNS = test system: SF-268 CNS
SK-MEL-2 melanoma = test system: SK-MEL-2 melanoma
SK-MEL-28 melanoma = test system: SK-MEL-28 melanoma
SK-MEL-5 melanoma = test system: SK-MEL-5 melanoma
SN12C renal = test system: SN12C renal
SNB-19 CNS = test system: SNB-19 CNS
SNB-75 CNS = test system: SNB-75 CNS
SR leukemia = test system: SR leukemia
SW-620 colon = test system: SW-620 colon
T-47D breast = test system: T-47D breast
TK-10 renal = test system: TK-10 renal
U251 CNS = test system: U251 CNS
UACC-257 melanoma = test system: UACC-257 melanoma
UACC-62 melanoma = test system: UACC-62 melanoma
UO-31 renal = test system: UO-31 renal

O=C1CCN2CCCC12.O=[N+]([O-])c1cc([N+](=O)[O-])c(O)c([N+](=O)[O-])c1
> 100 µM: TGI (786-0 renal) | TGI (A498 renal) | TGI (A549 NSCLC) | TGI (ACHN renal) | TGI (BT-549 breast) | TGI (CAKI-1 renal) | TGI (CCRF-CEM leukemia) | TGI (COLO 205 colon) | TGI (DU-145 prostate) | TGI (EKVX NSCLC) | TGI (HCC-2998 colon) | TGI (HCT-116 colon) | TGI (HCT-15 colon) | TGI (HL-60(TB) leukemia) | TGI (HOP-62 NSCLC) | TGI (HOP-92 NSCLC) | TGI (HS 578T breast) | TGI (HT29 colon) | TGI (IGROV1 ovarian) | TGI (K-562 leukemia) | TGI (KM12 colon) | TGI (LOX IMVI melanoma) | TGI (M14 melanoma) | TGI (MALME-3M melanoma) | TGI (MCF7 breast) | TGI (MDA-MB-231 breast) | TGI (MDA-MB-435) | TGI (MDA-N) | TGI (MOLT-4 leukemia) | TGI (NCI-H226 lung) | TGI (NCI-H23 lung) | TGI (NCI-H322M lung) | TGI (NCI-H460 lung) | TGI (NCI-H522 lung) | TGI (NCI/ADR-RES ovarian) | TGI (OVCAR-4 ovarian) | TGI (OVCAR-5 ovarian) | TGI (OVCAR-8 ovarian) | TGI (PC-3 prostate) | TGI (RPMI-8226 leukemia) | TGI (RXF 393 renal) | TGI (SF-268 CNS) | TGI (SK-MEL-2 melanoma) | TGI (SK-MEL-28 melanoma) | TGI (SK-MEL-5 melanoma) | TGI (SN12C renal) | TGI (SNB-19 CNS) | TGI (SNB-75 CNS) | TGI (SR leukemia) | TGI (SW-620 colon) | TGI (T-47D breast) | TGI (TK-10 renal) | TGI (U251 CNS) | TGI (UACC-257 melanoma) | TGI (UACC-62 melanoma) | TGI (UO-31 renal)
inactive: GI50 (786-0 renal) > 100 µM | GI50 (A498 renal) > 100 µM | GI50 (A549 NSCLC) > 100 µM | GI50 (ACHN renal) > 100 µM | GI50 (BT-549 breast) > 100 µM | GI50 (CAKI-1 renal) > 100 µM | GI50 (CCRF-CEM leukemia) > 100 µM | GI50 (COLO 205 colon) > 100 µM | GI50 (DU-145 prostate) > 100 µM | GI50 (EKVX NSCLC) > 100 µM | GI50 (HCC-2998 colon) > 100 µM | GI50 (HCT-116 colon) > 100 µM | GI50 (HCT-15 colon) > 100 µM | GI50 (HL-60(TB) leukemia) > 100 µM | GI50 (HOP-62 NSCLC) > 100 µM | GI50 (HOP-92 NSCLC) 37.3 µM | GI50 (HS 578T breast) > 100 µM | GI50 (HT29 colon) > 100 µM | GI50 (IGROV1 ovarian) > 100 µM | GI50 (K-562 leukemia) 69.4 µM | GI50 (KM12 colon) > 100 µM | GI50 (LOX IMVI melanoma) 97.2 µM | GI50 (M14 melanoma) 68.7 µM | GI50 (MALME-3M melanoma) 85.4 µM | GI50 (MCF7 breast) > 100 µM | GI50 (MDA-MB-231 breast) > 100 µM | GI50 (MDA-MB-435) 40.6 µM | GI50 (MDA-N) 62.3 µM | GI50 (MOLT-4 leukemia) > 100 µM | GI50 (NCI-H226 lung) > 100 µM | GI50 (NCI-H23 lung) > 100 µM | GI50 (NCI-H322M lung) > 100 µM | GI50 (NCI-H460 lung) > 100 µM | GI50 (NCI-H522 lung) 64.3 µM | GI50 (NCI/ADR-RES ovarian) > 100 µM | GI50 (OVCAR-4 ovarian) > 100 µM | GI50 (OVCAR-5 ovarian) > 100 µM | GI50 (OVCAR-8 ovarian) > 100 µM | GI50 (PC-3 prostate) > 100 µM | GI50 (RPMI-8226 leukemia) > 100 µM | GI50 (RXF 393 renal) > 100 µM | GI50 (SF-268 CNS) > 100 µM | GI50 (SK-MEL-2 melanoma) > 100 µM | GI50 (SK-MEL-28 melanoma) > 100 µM | GI50 (SK-MEL-5 melanoma) > 100 µM | GI50 (SN12C renal) > 100 µM | GI50 (SNB-19 CNS) > 100 µM | GI50 (SNB-75 CNS) > 100 µM | GI50 (SR leukemia) > 100 µM | GI50 (SW-620 colon) > 100 µM | GI50 (T-47D breast) > 100 µM | GI50 (TK-10 renal) > 100 µM | GI50 (U251 CNS) > 100 µM | GI50 (UACC-257 melanoma) 80 µM | GI50 (UACC-62 melanoma) > 100 µM | GI50 (UO-31 renal) 43.1 µM
